Assay: Solubility of protamine sulphate stock solution with added NaCl
Type: physicochemical
Details: 21° C.
Method: In one embodiment, the stock solution of the polycationic compound is prepared with NaCl. […] This allows the storage and/or use of higher concentrations and lowers the volumes of polycationic compound stock solution needed. This makes much larger volume available for either the GLP-1 compound stock solution or the solution of metal salt. Thereby, it is easier to control the mixing process, involving the aqueous solution of GLP-1 compound and the stock solution of metal salt. As a result of this, it is easier to control the particle size of the core precipitate. The injectability of the final formulation is thereby improved, especially after storage at elevated temperatures. For example, a 30-60 mg/mL protamine sulphate stock solution is achievable at 21° C. when adding sodium chloride corresponding to a concentration of 0.3M, and a 30-80 mg/mL protamine sulphate stock solution is achievable at 21° C. when adding sodium chloride corresponding to a concentration of 0.5M.

protamine sulphate
achievable protamine sulphate stock solution concentration (sodium chloride 0.3M): 30 to 60 mg/mL
achievable protamine sulphate stock solution concentration (sodium chloride 0.5M): 30 to 80 mg/mL
